Consider one substance from patent publication US20090111836A1, “Angular Pyranocoumarins, Process for Preparation and Uses Thereof” (CITY UNIVERSITY OF HONG KONG, priority 2007, published 2009).

The chains behind the UniProt entries cited, without tags or fusion partners.
UniProt P08183, whole entry: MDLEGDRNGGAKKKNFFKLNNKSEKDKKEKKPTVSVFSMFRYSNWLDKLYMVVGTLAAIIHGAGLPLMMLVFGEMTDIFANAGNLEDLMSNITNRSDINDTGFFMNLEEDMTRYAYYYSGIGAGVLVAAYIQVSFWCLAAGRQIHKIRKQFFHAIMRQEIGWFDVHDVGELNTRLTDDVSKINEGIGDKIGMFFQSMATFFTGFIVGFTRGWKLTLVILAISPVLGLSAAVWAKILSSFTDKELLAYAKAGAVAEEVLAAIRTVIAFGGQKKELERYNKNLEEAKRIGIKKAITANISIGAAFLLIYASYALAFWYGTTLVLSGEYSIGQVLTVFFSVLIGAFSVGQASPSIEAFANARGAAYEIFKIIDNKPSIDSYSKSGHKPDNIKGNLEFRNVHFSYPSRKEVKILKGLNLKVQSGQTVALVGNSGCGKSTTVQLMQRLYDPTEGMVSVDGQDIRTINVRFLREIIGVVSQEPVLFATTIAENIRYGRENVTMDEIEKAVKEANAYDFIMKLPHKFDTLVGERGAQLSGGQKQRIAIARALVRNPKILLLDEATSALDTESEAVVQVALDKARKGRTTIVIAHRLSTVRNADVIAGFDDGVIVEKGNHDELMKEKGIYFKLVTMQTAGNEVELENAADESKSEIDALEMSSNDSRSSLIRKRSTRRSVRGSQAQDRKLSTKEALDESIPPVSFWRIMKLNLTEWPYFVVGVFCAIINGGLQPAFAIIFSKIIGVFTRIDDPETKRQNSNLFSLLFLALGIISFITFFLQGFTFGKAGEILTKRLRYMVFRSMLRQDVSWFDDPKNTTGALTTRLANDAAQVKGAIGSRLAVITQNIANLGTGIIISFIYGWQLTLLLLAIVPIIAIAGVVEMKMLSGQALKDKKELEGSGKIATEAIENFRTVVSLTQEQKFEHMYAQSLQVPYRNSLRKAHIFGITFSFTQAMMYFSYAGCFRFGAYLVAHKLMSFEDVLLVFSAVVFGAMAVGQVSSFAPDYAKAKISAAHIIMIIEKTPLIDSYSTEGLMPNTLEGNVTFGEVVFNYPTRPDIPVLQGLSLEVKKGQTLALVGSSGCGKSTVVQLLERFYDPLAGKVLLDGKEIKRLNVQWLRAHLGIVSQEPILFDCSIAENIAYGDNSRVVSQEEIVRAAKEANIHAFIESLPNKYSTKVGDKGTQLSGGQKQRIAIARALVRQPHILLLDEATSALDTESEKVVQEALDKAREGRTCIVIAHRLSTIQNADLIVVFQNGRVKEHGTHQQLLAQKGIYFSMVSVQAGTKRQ

This series addresses P-gp (Homo sapiens, UniProt P08183). Nature of the series: MDR1 reactivity shift assay (UIC2 binding to P-gp), HepG2-DR. As to conditions: control agents, concentration not given.

In the case of sodium vanadate, the “Cellular fluorescence (binding of UIC2 to P-gp)” value was “decreased”.
